Tested on: soil urease
Assay: Urea hydrolysis in bands of urea plus inhibitor in Hastings silt loam soil (banded system)
Format: biochemical
Conditions: for Soil urease inhibition in words, banded soil tests: banded system, 3-day and 6-day tests

| SMILES | Soil urease inhibition in words, banded soil tests | Unhydrolyzed Urea, % 3 Days (Table IV, inhibitor 10 percent of urea (wt/wt), 41 mg/band, two replications, 3 days) [%] | Unhydrolyzed Urea, % 6 Days (Table IV, inhibitor 10 percent of urea (wt/wt), 41 mg/band, two replications, 6 days) [%] |
| --- | --- | --- | --- |
| ClP1(Cl)=NP(Cl)(Oc2ccccc2)=NP(Cl)(Oc2ccccc2)=N1 (stereo not shown) | not effective urease inhibitors |  |  |
| CN(C)P1(N(C)C)=NP(Cl)(Cl)=NP(Cl)(Cl)=N1 |  | 0.0 | 0.0 |
| ClP1(Cl)=NP(Cl)(Cl)=NP(Cl)(Oc2ccccc2)=N1 (stereo not shown) | not effective urease inhibitors |  |  |

From US4670038A, “Cyclotriphosphazatriene-derivatives as soil urease activity inhibitors” (Tennessee Valley Authority, priority 1986, dated 1987)
